The nature of this data set: Phase solubility studies: comparison of the six PAHs across the three CDs. The following applies: reached with 0.1 M of the CD.

For hydroxypropyl-γ-CD [HP-γ-CD], the “Decreasing order of PAHs apparent solubility” value was “ACE>PHE>FLU>FLT>PYR>ANT”.

The values above are taken from PMC3446921, “Enhanced Solubilisation of Six PAHs by Three Synthetic Cyclodextrins for Remediation Applications: Molecular Modelling of the Inclusion Complexes” (PLoS ONE, 2012).
